Biological target: c-fms (Homo sapiens, UniProt P07333)
Assay: c-fms autophosphorylation, fluorescence polarization competition immunoassay
Format: biochemical
Settings: 10 nM c-fms, 1 mM ATP, 5 mM MgCl2, 45 min room temperature; averages of three independent measurements

Chains of the proteins cited; added tags and fusions are not shown. Residues count along the entry.
UniProt P07333, 20-972: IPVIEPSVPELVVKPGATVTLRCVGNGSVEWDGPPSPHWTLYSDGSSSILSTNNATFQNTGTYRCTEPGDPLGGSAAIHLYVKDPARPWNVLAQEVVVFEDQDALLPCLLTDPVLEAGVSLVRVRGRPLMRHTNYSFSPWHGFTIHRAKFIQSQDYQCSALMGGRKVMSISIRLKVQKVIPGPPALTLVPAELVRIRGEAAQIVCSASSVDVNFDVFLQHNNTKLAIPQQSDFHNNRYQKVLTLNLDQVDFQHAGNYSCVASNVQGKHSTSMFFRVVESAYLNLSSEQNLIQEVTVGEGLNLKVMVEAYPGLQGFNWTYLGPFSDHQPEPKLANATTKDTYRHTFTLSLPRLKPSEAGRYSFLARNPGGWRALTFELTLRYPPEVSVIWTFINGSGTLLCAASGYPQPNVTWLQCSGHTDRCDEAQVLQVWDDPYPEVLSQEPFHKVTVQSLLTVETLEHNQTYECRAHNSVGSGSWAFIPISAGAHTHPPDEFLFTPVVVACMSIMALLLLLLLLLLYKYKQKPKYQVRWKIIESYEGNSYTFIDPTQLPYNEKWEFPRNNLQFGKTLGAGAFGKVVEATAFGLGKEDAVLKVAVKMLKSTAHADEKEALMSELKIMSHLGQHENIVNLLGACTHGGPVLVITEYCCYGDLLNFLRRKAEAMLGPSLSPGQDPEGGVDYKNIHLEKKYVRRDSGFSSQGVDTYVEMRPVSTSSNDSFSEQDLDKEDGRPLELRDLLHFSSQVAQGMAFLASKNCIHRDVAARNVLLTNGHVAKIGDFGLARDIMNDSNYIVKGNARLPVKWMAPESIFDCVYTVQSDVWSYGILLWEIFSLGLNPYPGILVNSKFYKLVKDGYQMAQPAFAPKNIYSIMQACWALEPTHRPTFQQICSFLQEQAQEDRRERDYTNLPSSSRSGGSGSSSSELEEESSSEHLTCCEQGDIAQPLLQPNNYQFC

CC1CN(c2ccc(Nc3ncc4c(=O)c(C(N)=O)cn(-c5ccc6c(c5)CCC6)c4n3)cc2)CC(C)N1 (stereo not shown) [Cpd 43, 2-[4-(3,5-Dimethyl-piperazin-1-yl)-phenylamino]-8-indan-5-yl-5-oxo-5,8-dihydro-pyrido[2,3-d]pyrimidine-6-carboxylic acid amide]
IC50: 7 nM

— patent publication US7642270B2, “5-oxo-5,8-dihydro-pyrido-pyrimidine as inhibitors of c-fms kinase” (Janssen Pharmaceutica N.V., priority 2005, dated 2010)
